The chains behind the UniProt entries cited, without tags or fusion partners. Residues count along the entry.
UniProt Q00987, 1-125: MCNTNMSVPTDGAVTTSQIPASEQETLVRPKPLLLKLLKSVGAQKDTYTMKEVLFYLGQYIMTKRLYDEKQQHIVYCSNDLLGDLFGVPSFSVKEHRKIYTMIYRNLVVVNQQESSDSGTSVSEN

According to patent publication US8927500B2, “Peptidomimetic macrocycles” (Aileron Therapeutics, Inc., priority 2012, dated 2015):

Key:
MDM2 = MDM2 (Homo sapiens, UniProt Q00987); assay: Competitive fluorescence polarization assay for MDM2; type: binding; conditions: competitive FP assay
MDMX = target: T1, MDMX (Homo sapiens, UniProt O15151); assay: Competitive fluorescence polarization assay for MDMX; type: binding; conditions: competitive FP assay
T1 sequence (O15151 1-125): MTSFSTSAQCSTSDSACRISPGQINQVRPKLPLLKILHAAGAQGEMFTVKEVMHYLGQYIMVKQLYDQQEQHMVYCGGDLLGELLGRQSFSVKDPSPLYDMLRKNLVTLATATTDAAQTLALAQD

With `CC(=O)N[C@@H](CC(C)C)C(=O)N[C@H](C(=O)N[C@@H](Cc1ccccc1)C(=O)N[C@]1(C)CCCCCCC=CCCC[C@@](C)(C(=O)N[C@@H](CO)C(=O)N[C@@H](C)C(=O)N[C@H](C)C(N)=O)NC(=O)[C@H](CC(C)C)NC(=O)[C@H](CCC(N)=O)NC(=O)[C@H](C)NC(=O)[C@H](Cc2c[nH]c3ccccc23)NC(=O)[C@H](Cc2ccc(O)cc2)NC(=O)[C@H](C(C)C)NC1=O)[C@@H](C)O` [compound 137] the IC50 (MDM2; IC50 (MDM2)) was < 10 nM, the Ki (MDM2; Ki (MDM2)) was < 10 nM and the IC50 (MDMX; IC50 (MDMX)) was 100 to 1000 nM. It also gave a Ki (MDMX; Ki (MDMX)) of 10 to 100 nM.
